## Ab-14 light chain CDR variants: yeast mating affinities

Values reported by Li et al. 2023, doi:10.1038/s41467-023-39022-2 (FLAb copy).

Target peptide (SARS-CoV-2 spike, HR2 region): PDVDLGDISGINAS

Each scFv is VH, a 15-residue (Gly4Ser)3 linker, VL, as in the parent Ab-14, and differs from it in the CDRs of the light chain only.
VH: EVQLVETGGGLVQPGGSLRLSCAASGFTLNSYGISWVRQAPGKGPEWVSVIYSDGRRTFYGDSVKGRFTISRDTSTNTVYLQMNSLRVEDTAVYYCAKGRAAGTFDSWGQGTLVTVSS
VL: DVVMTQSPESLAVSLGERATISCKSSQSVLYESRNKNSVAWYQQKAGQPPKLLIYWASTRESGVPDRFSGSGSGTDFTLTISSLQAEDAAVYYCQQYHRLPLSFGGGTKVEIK

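Phage display of a naive human antibody library on the peptide gave the parent. These sequences belong to a second round, designed from the earlier measurements on random variants of the parent. Group labels follow the data file (En: ensemble of fine-tuned language models; GP: Gaussian process model; HC: hill climbing; Gen: genetic algorithm; Gibbs: Gibbs sampling; a sequence that several methods proposed may carry one label only). AlphaSeq pools MATa yeast showing the antibodies with MATalpha yeast showing the peptide. Mating (16 h, 30 °C) was followed by selection of diploids and sequencing of their barcodes. The ratio of observed to expected reads was calibrated, replicate by replicate, on BCL2-family standards whose Kd was known from biolayer interferometry. The assay was run in six technical replicates.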

Variants are written as CDR1, CDR2 and CDR3 of the light chain (limits as in the source). Parent: KSSQSVLYESRNKNSVA, WASTRES, QQYHRLPLS.
This list holds designs with more than six substitutions.
Values are log10 of the apparent Kd in nM; lower means stronger binding.
A mean of the replicates is given; it leaves out those without a signal.
A pair that was not seen in any replicate is written "no signal"; this usually means weak binding, but a binder can also be missed.

The variant KLSQVTHSELKVKNSIA / EMVTREK / QQYDRLPLS [En_HC] gave 0.52 (6 of 6 replicates).
The variant KLQQSELYEERNSNAVA / NASLREL / QQYHRLPLS [GP_Gibbs] gave -0.38 (6 of 6 replicates).
The variant KLEISVMQWSRNKNSVA / NASTRLV / QQYHRLPLS [GP_Gibbs] gave 0.04 (6 of 6 replicates).
The variant KLSTSVLYESRMANNVA / AASTREE / QQYHRLPLS [GP_Gibbs] gave 1.50 (6 of 6 replicates).
The variant LLQQSELYESRNKNSVA / DASTREE / QAYHRLPLS [GP_Gibbs] gave 0.42 (6 of 6 replicates).
The variant KLYVSTMLESHVKNSIA / DLSTRGN / QQYHRLPLS [En_HC] gave 0.27 (6 of 6 replicates).
The variant HMSMLTLGGMRNRNSVA / QMTTREN / QQYDRLPLA [En_Gen] gave 2.25 (3 of 6 replicates).
The variant KLWGRCMDEELINYSIA / NGRLAVQ / QQYDRLPLS [En_Gibbs] gave 1.01 (6 of 6 replicates).
The variant KMSQEVWLESRNDNSVA / MASCRED / QQYHRLPLS [GP_Gibbs] gave 1.65 (6 of 6 replicates).
The variant KLSQGWLYESRECNSVA / NASQREE / QQYHRLPLS [GP_Gibbs] gave 0.62 (6 of 6 replicates).
The variant TLTQVQGMETHNKDNVA / DLSTRGS / QQYHRLPLS [En_HC] gave 0.16 (6 of 6 replicates).
The variant MISDTGLHDSRMQNSVA / NNSTRES / QQYHRLPLS [En_HC] gave 1.47 (6 of 6 replicates).
The variant ILSDSVLQLSRNKNSVA / DNSTRES / QQYDRLPLS [En_HC] gave -0.02 (6 of 6 replicates).
The variant MISQVTGLGQRQRNNVA / QTSTREP / QQYDRLPLI [En_Gen] gave no signal (0 of 6 replicates).
The variant KLTNVTGTEKVKGNNVA / EMETRER / QQYNRLPLA [En_Gen] gave 0.12 (6 of 6 replicates).
The variant KQSPQDLYQSRNKNQVA / DASTRES / QQYHRLPLS [GP_Gibbs] gave -0.12 (6 of 6 replicates).
The variant KLRQVTEYESFNKNSVA / QTETREN / QDYDRLPLS [En_HC] gave no signal (0 of 6 replicates).
The variant AISFEMMSPHNHSNAVA / SESKRCS / QQYFTLPLS [En_Gibbs] gave 1.46 (1 of 6 replicates).
The variant KISQMARVGSTHGNSIA / EEQTRAK / QQYHRLPLS [En_Gen] gave 0.53 (5 of 6 replicates).
The variant KISQSIMFSSGMKNAIA / QMEMREE / QQYHRLPLS [En_HC] gave 0.54 (6 of 6 replicates).
The variant RLSLEHTGYWEMMNSIA / QASTKAF / QQYDRLPLH [En_Gibbs] gave 2.05 (6 of 6 replicates).
The variant NLAMAYEQGILIKNNIA / SSNLREN / QQYEHLPLI [En_Gibbs] gave 0.52 (6 of 6 replicates).
The variant TISQSLLMQTSHKNSVA / GEETRYS / QQYHRLPLS [En_HC] gave 0.38 (6 of 6 replicates).
The variant KISQMVWYESTWMNAIA / QTSTREE / QQYHRLPLS [En_HC] gave 0.31 (6 of 6 replicates).
The variant KLSQSYEYESNNSNSVA / NASQREH / QQYHRLPLS [GP_Gibbs] gave 1.12 (6 of 6 replicates).
The variant LVDQSQLYENRMKNSVA / DASLRES / QQYHRLPLS [GP_Gibbs] gave -0.23 (6 of 6 replicates).
The variant SLSESEREENSVEQNIA / DGTEHMR / QQYFQLPLL [En_Gibbs] gave 1.10 (6 of 6 replicates).
The variant KMTTNLGHQASRKNSIA / EADMVAC / QQYMRLPLI [En_Gibbs] gave 1.27 (6 of 6 replicates).
The variant KLPLATMVEMVSKNNVA / ELSTRGS / QQYNRLPLS [En_HC] gave 0.90 (6 of 6 replicates).
The variant KVHQSWLYESRQINSVA / NASQRCS / QQYHRLPLS [GP_Gibbs] gave 0.26 (6 of 6 replicates).
The variant KLSVSYGILEMYRNSVA / QNSTREE / QQYDHLPLS [En_Gen] gave no signal (0 of 6 replicates).
The variant KIDMSLNYESVALDSIA / EEVMHTA / QQYDRLPLF [En_Gibbs] gave 1.72 (1 of 6 replicates).
The variant MMSQVTGMELRQQNNVA / QTTTREE / QQYDRLPLV [En_Gen] gave 1.38 (6 of 6 replicates).
The variant QINVNRLMNYLMNNAIA / GKTLRVD / QQYARLPLS [En_Gibbs] gave 1.50 (6 of 6 replicates).
The variant MISDLTMYGSRNKNSVA / DLSTRGS / QQYHRLPFS [En_HC] gave 0.30 (6 of 6 replicates).
The variant KLSFTTEMEHVNRNSVA / ELVTRMQ / QQYNRLPLS [En_Gen] gave 0.13 (6 of 6 replicates).
The variant TISGMTNQAMSKHNSVA / NVTMRPQ / QQYARLPLS [En_Gen] gave 1.73 (6 of 6 replicates).
The variant MIHEMMGLVSHKQSSIA / DNSTRED / QQYDRLPLS [En_Gen] gave no signal (0 of 6 replicates).
The variant KLSASQLYQSRNSNAVA / NASTRMS / QQYHRLPLS [GP_Gibbs] gave -0.13 (6 of 6 replicates).
The variant KVSQSNLGESRMKQSVA / HASQRES / QQYHRLPLS [GP_Gibbs] gave 0.78 (6 of 6 replicates).
The variant KGMGSMLYESRNENSVA / NASQRES / QQYHRLPLS [GP_Gibbs] gave 0.56 (6 of 6 replicates).
The variant ILLQVTTEHGAALNNIA / EGARRLD / QQYARLPLV [En_Gibbs] gave -0.04 (6 of 6 replicates).
The variant NLSMELEDMGVKTHSIA / EEQLPEY / QQYMRLPLM [En_Gibbs] gave 1.89 (6 of 6 replicates).
The variant KCQISVEQESRQKNSVA / HASTRES / QQYHRLPLS [GP_Gibbs] gave 0.29 (6 of 6 replicates).
The variant MLSQLFMYGSRNYNSVA / QASTRES / QQYDRLPLI [En_HC] gave 1.67 (6 of 6 replicates).
The variant MLTWGDDHETGRQNSIA / HAHERNT / QQYHQLPLT [En_Gibbs] gave 0.55 (6 of 6 replicates).
The variant TLVQSVMGSSRTKNSVA / NAETREQ / QHYHRLPLS [En_HC] gave 1.50 (6 of 6 replicates).
The variant MISMMHAMQYNEESSIA / DAEALNS / QQYFELPLS [En_Gibbs] gave 2.07 (1 of 6 replicates).

The authors' rule: three or more of the six replicates give a measured affinity, fewer mean a poor binder.
A sequence measured in both rounds can read differently, since the two assays cover different ranges.
Background: pairings of all light chain designs with three empty control strains gave a value in 4% of cases (median 2.64, 5th percentile 1.59). Values in that range, when seen in few replicates, are hard to tell from nonspecific mating.
Of ten entries with the parent sequence, four were seen in most replicates (averages 0.34 to 2.37), three in one and three in none, so single entries are noisy.